Molecular target: Interleukin enhancer-binding factor 3 (Homo sapiens, UniProt Q12906)
Conditions: dose <= 1.0 µM

Amino acid sequences for entries named in this document (tags omitted).
UniProt Q12906, whole entry: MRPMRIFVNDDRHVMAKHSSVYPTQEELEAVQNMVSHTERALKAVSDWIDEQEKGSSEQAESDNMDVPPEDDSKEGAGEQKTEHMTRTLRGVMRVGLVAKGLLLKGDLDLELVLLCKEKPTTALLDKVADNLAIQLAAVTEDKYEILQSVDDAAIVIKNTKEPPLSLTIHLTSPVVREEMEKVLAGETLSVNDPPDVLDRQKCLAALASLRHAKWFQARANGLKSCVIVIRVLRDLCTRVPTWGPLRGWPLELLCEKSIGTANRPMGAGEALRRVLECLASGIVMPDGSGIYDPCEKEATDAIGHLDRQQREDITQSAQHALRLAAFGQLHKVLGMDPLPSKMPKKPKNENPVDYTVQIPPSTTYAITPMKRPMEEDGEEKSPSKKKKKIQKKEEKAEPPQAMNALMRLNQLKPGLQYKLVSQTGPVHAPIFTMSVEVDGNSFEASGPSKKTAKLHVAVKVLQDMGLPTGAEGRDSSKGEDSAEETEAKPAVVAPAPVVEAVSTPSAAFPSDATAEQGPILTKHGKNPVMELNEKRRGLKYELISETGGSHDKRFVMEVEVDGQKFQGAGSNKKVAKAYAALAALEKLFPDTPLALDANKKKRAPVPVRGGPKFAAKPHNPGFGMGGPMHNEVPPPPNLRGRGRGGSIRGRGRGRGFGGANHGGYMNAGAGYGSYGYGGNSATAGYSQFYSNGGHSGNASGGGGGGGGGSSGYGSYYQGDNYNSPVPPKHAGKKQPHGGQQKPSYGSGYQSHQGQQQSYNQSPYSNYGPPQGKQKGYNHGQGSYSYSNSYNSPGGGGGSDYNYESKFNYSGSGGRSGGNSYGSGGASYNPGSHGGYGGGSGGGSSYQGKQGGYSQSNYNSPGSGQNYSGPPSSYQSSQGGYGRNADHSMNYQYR

Row | SMILES | Kdiss
1 | Cn1c[n+](C)c2c1C(=O)c1cc3ccccc3cc1C2=O | 0.059 s⁻¹
2 | COCC[n+]1c2c(n(Cc3cnccn3)c1C)C(=O)c1ccccc1C2=O.[Br-] [SEPANTRONIUM BROMIDE] | 0.063 s⁻¹

— ChEMBL document CHEMBL5375989, “Pioneering 4,11-Dioxo-4,11-dihydro-1H-anthra[2,3-d]imidazol-3-ium Compounds as Promising Survivin Inhibitors by Targeting ILF3/NF110 for Cancer Therapy” (J Med Chem, 2023)
